Measurements taken from US8173662B2, “Fused pyrimidines as inhibitors of nucleoside phosphorylases and nucleosidases” (Industrial Research Limited, priority 2002, dated 2012).

Chains of the proteins cited; added tags and fusions are not shown. Lines headed by an entry give the natural chain unless they say otherwise; changes in a name come on top.
UniProt P0AF12: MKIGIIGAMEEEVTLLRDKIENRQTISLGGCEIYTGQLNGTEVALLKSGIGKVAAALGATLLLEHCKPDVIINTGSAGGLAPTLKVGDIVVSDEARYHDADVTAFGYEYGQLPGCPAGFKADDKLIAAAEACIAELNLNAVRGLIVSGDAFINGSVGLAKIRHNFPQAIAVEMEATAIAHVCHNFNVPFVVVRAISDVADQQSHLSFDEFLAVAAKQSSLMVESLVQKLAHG

Target: E. coli MTAN (Escherichia coli, UniProt P0AF12)
Assay: Inhibition of E. coli MTAN (slow-onset inhibition, spectrophotometric assay)
Assay type: biochemical
Conditions: initial inhibition constant

Work on `CSC[C@H]1CN(Cc2c[nH]c3c(N)ncnc23)C[C@@H]1O` [Compound 52, (3R,4S)-1-[(9-Deazaadenin-9-yl)methyl]-3-hydroxy-4-(methylthiomethyl)pyrrolidine] yielded a Ki of 0.017 ± 0.002 nM.
